Experiments:
IL-2Rα^− YT-1 cells = test: YT-1 cell STAT5 phosphorylation, IL-2Rα− cells; format: cell-based, human; conditions: flow cytometry, 20 minutes stimulation
Method: (§1) YT-1 cell STAT5 phosphorylation studies. Approximately 2×10^5 IL-2Rα^− YT-1 or IL-2Rα^+ YT-1 cells were plated in each well of a 96-well plate and re-suspended in RPMI complete medium containing serial dilutions of the indicated treatments. Cytokine/antibody complexes were formed by incubating a 1:1 molar ratio of F5111 antibody to hIL-2 for 1 hour at 37° C. Cells were stimulated for 20 minutes at 37° C. and immediately fixed by addition of formaldehyde to 1.5% and 10 minute incubation at room temperature. Permeabilization of cells was achieved by resuspension in ice-cold 100% methanol for 30 minutes at 4° C. […] Cells were then washed twice in FACS buffer and mean fluorescence intensity (MFI) was determined on a CytoFLEX flow cytometer (Beckman-Coulter). Dose-response curves were fitted to a logistic model and half-maximal effective concentrations (EC50s) were calculated using GraphPad Prism data analysis software after subtraction of the mean fluorescence intensity (MFI) of unstimulated cells and normalization to the maximum signal intensity. […]
(§2) A cell signaling assay was performed on YT-1 human NK cells with or without IL-2Rα. FIGS. 15A and 15B show STAT5 phosphorylation in response to hIL-2, hIL-2/F5111 complex, F5111 IC LN15, F5111 IC LN25, or F5111 IC LN35 on IL-2Rα^+ cells (FIG. 15A) or IL-2Rα^− cells (FIG. 15B), as measured by flow cytometry.

IL-2Rα^+ YT-1 cells = test: YT-1 cell STAT5 phosphorylation, IL-2Rα+ cells; format: cell-based, human; conditions: flow cytometry, 20 minutes stimulation
Method: as §1, §2

Substance: IL-2: human IL-2 cytokine (residues 1-133), SEQ ID NO: 6 [reference compound]
- STAT5 activation on IL-2Rα^− YT-1 cells (IL-2Rα^− YT-1 cells): signals
- STAT5 activation on IL-2Rα^+ YT-1 cells (IL-2Rα^+ YT-1 cells): signals

From patent publication US12151000B2, “Tolerogenic artificial antigen-presenting cells” (THE JOHNS HOPKINS UNIVERSITY, priority 2019, dated 2024)
